Cytoprotection (ATP increase) data for 50 molecules are collected here from PubChem BioAssay AID1471 (National Center for Advancing Translational Sciences (NCATS), 2008).

This experiment is described as follows: qHTS Multiplex Assay to Identify Dual Action Probes in a Cell Model of Huntington: Cytoprotection (ATP).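 Also: toxic huntingtin expression switched on by the ecdysone agonist tebufenozide; % of control where 0% means no effect; nearly all actives have a fitted effect of over 45% in size.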 As to conditions: PC12 HTT-Q103 induced, ATP luminescence, 40 h. The source says:
NIH Chemical Genomics Center [NCGC]
NIH Molecular Libraries Probe Production centers Network [MLPCN]
Assay Submitter (PI): Wei Zheng
Huntington's disease is a neurodegenerative disorder caused by a trinucleotide repeat expansion in Exon 1 of the Huntingtin gene. The CAG trinucleotide encodes glutamine and polyglutamine expansions cause cell death in selective areas of the brain. Huntington polyglutamine repeats have the tendency to form aggregates which are observable in later stages of the disease. The exact nature of the aggregates, whether toxic, protective, or insignificant, is unclear.
A stable PC12 cell line containing a gene fusion of Exon 1 of the Huntingtin gene linked to GFP under the control of the inducible ecdysone promoter were used as the cell-based model of Huntington Disease for high throughput screening. Exon 1 of the Huntingtin gene contained an expansion of 103 polyglutamines (Q103) which, when expressed, caused cell death and distinct, bright GFP aggregates. The amount of cell death and the size and intensity of GFP aggregates increased over time and induction level. The cell death were quantified with a measurement of ATP content in the cells. A maximal 40-50% of cell death was observed when the Huntington gene was induced in this cell line.
We optimized this assay in a homogeneous 1536 well format. A quantitative high throughput screen (qHTS) was conducted on the PC12 cells which were induced to express the toxic fusion construct. Small molecules which prevented cell death were identified by using a luminescent ATP quantification method (Perkin Elmer's ATPlite).
PC12 cells stably containing a construct with an ecdysone inducible promoter expressing GFP fused to the exon 1 of HTTQ103 (Huntington protein which containing a 103 ployglutamine expansion) were used.
NCGC Assay Protocol Summary:
Sequence, Parameter, Description
1, Reagent, 5 uL 1500 cells/well 1536 TC treated White clear bottom plate
2, Compound, 23 nL Tebufenozide inducer (100 nM final) to all columns
3, Compound, 23 nL 40 uM to 0.5 nM Libraries
5, Reagent, 5 ul ATPLite cell death assay reagent
6, Detector, 4 sec integration with a Viewlux Luminescent
Media consisted of phenol red free DMEM + 5% equine serum (Hyclone # SH30072.03 ), 5% supplemented Bovine Calf Serum (Hyclone # SH30074.03 ), 1x pen/strep, no G418
Control columns: 1 = DMSO, 2= 2 uM teb dilns (1:1), 4 = 100 nM Teb inducer. Sample columns received 100 nM Teb.

Setting [1] is: at 10 µM (top of the series) unless noted.

The entries are a selection whose mix differs from that of the whole data set. The source made the active and inactive calls. Calls follow the shape of the dose curve; as a rule, active = well fitted activation curve with a large enough effect; inconclusive = small, poorly fitted or top-dose-only effect; inactive = no such curve, though single readings can be large or run the other way.

For the molecule `Cc1ccc(OP(=O)(Nc2nccs2)Oc2ccc(C)cc2)cc1`, the cytoprotection (ATP increase) under setting [1] was inactive: -1.27%. Same read-out and setting: the result for `O=[N+]([O-])c1ccc(C[As](=O)(O)O)cc1` reads inactive: 26.1%; that for `COc1ccccc1OP(=O)(Nc1ccc(C)cn1)Oc1ccccc1OC`, inactive: 5.14%.

As for `Cc1ccc(N/C(=N/P(=O)(N2CCOCC2)N2CCOCC2)N2CCOCC2)cc1`, the cytoprotection (ATP increase) under setting [1] is inactive: 5.3%. On to `NC(=O)c1cc([N+](=O)[O-])cc([N+](=O)[O-])c1N`, for which the cytoprotection (ATP increase) under setting [1] is inactive: -37.1% [at 56.4 µM]. On the same count and under the same terms, the result for `Nc1cccc2ccc([As](=O)(O)O)cc12` reads inactive: 1.95%.

On to `C(Cc1nn[nH]n1)c1nn[nH]n1`, for which the cytoprotection (ATP increase) under setting [1] was inactive: -14.1%. Turning to `CCN(N=Nc1nonc1N)c1nonc1N`, under setting [1], the cytoprotection (ATP increase) is inactive: -9.38% [at 1.9 µM]. On to `[N-]=[N+]=NCC(O)CN=[N+]=[N-]` (stereo unspecified), for which the cytoprotection (ATP increase) under setting [1] was inactive: -3.82%. Turning to `Cc1ccc(NP(=O)(Oc2ccccc2F)Oc2ccccc2F)nc1`, the cytoprotection (ATP increase) under setting [1] was inactive: -3.23%. On to `CCOP(=O)(Nc1ccccc1)OCC`, for which the cytoprotection (ATP increase) was inactive: 12.2% (at 10 µM (top of the series)) and inactive: 19.7% (at 56.4 µM (top of the series)). For the molecule `Cc1cc(SC(NC(=O)c2ccc(F)cc2)C(Cl)(Cl)Cl)ncn1` (stereo unspecified), the cytoprotection (ATP increase) under setting [1] is inactive: 1.16%. `O=P(Nc1nc2ccc(Cl)cc2s1)(c1ccccc1)c1ccccc1`: the cytoprotection (ATP increase) under setting [1] is inactive: -1.87%. The same measure, in the same setting: the result for `O=C(O)c1ccccc1[As](=O)(O)O` reads inactive: -0.431%.

Regarding `CC(=O)Nc1ccc([As](=O)(O)O)cc1`, the cytoprotection (ATP increase) under setting [1] was inactive: 3.23%.

Turning to `CN(C)C(=O)Oc1noc2ccccc12`, under setting [1], the cytoprotection (ATP increase) is inactive: 23.5%. Consider `O=c1c2cc([N+](=O)[O-])ccc2[nH]c2c([N+](=O)[O-])cc([N+](=O)[O-])cc12`, for which the cytoprotection (ATP increase) under setting [1] was inactive: -25.4%. In the case of `Cc1ccccc1OP(=O)(Nc1ccccn1)Oc1ccccc1C`, the cytoprotection (ATP increase) under setting [1] is inactive: 8.97%. On to `CCC(=O)N1C2C3N(C(=O)CC)C1C1N(C(=O)CC)C(C(N1C(=O)CC)N3C(=O)CC)N2C(=O)CC`, for which, under setting [1], the cytoprotection (ATP increase) is inactive: 2.37% [at 56.4 µM]. As to `O=C(OC1CN2CCC1CC2)c1ccccc1` (stereo unspecified), the cytoprotection (ATP increase) under setting [1] was inactive: 12.1% [at 56.4 µM]. `Cc1ccc(OP(=O)(Nc2ccccn2)Oc2ccc(C)cc2)cc1`: the cytoprotection (ATP increase) under setting [1] is inactive: 32.4%. On the same count and under the same terms, the result for `COC(=O)c1cc2c(s1)N=C(c1ccccc1)N(C)P2(=O)N1CCOCC1` (stereo unspecified) reads inactive: -22% [at 56.4 µM]; that for `Cc1ccc(NP(=O)(Oc2cccc(C)c2)Oc2cccc(C)c2)nc1`, inactive: -7.84%; that for `CCOC(=O)NC(Sc1ccccc1)C(Cl)(Cl)Cl` (stereo unspecified), inactive: -37.5% [at 56.4 µM]. On to `c1ccc(-c2nn[nH]n2)c(-c2nn[nH]n2)c1`, for which the cytoprotection (ATP increase) under setting [1] was inactive: -15.6%.

Consider `O=C(NC1CCS(=O)(=O)C1)NP(=S)(Oc1ccccc1)Oc1ccccc1` (stereo unspecified), for which the cytoprotection (ATP increase) under setting [1] is inactive: -11.3% [at 56.4 µM]. The same measure, in the same setting: the result for `CCNC(=S)/N=C(\N)N[N+](=O)[O-]` reads inactive: -22% [at 1.9 µM]; that for `CC(=O)Nc1ccc(Oc2c([N+](=O)[O-])cc([N+](=O)[O-])cc2[N+](=O)[O-])cc1`, inactive: -29.2% [at 56.4 µM]; that for `CC(=O)Nc1ccc([As](=O)(O)O)c(O)c1`, inactive: 2.59%. On the same count and under the same terms, the result for `C[C@@H]1C=CCP(=O)(Oc2ccccc2)O1` (stereo partly specified) reads inactive: 10.7%; that for `C[C@H]1OP(=O)(Oc2ccccc2)C[C@@H]2O[C@@H]21` (stereo partly specified), inactive: -9.07%. Regarding `CC(C)(C)C(=O)NC(Sc1ccccc1)C(Cl)(Cl)Cl` (stereo unspecified), under setting [1], the cytoprotection (ATP increase) was inactive: -32.1% [at 56.4 µM]. As for `CCOc1ccc(C2=NCC(CBr)S2)cc1` (stereo unspecified), under setting [1], the cytoprotection (ATP increase) was inactive: 17.7% [at 56.4 µM]. Same read-out and setting: the result for `O=P1(Nc2nc3ccc(Cl)cc3s2)COc2ccccc2O1` (stereo unspecified) reads inactive: -11.5% [at 56.4 µM]; that for `C[C@@H](O)COc1ccc([As](=O)(O)O)cc1N`, inactive: -0.0897%; that for `CN1CCC[C@H](OC(=O)C(c2ccccc2)c2ccccc2)C1`, inactive: -4.83%.

`c1nnnn1CCn1cnnn1`: the cytoprotection (ATP increase) under setting [1] was inactive: 0.594% [at 56.4 µM]. As for `O=P(Nc1nccs1)(c1ccccc1)c1ccccc1`, the cytoprotection (ATP increase) under setting [1] is inactive: -10.7% [at 56.4 µM]. Still for that read-out and setting: the result for `CC(C)C(=O)NC(Sc1ccccc1)C(Cl)(Cl)Cl` (stereo unspecified) reads inactive: 11.7%. `O=C(OC1CN2CCC1CC2)c1cccc(Cl)c1` (stereo unspecified): the cytoprotection (ATP increase) under setting [1] is inactive: 3.29% [at 56.4 µM]. With `Nc1ccc([As](=O)(O)c2ccc([N+](=O)[O-])cc2)cc1`, the cytoprotection (ATP increase) under setting [1] is inactive: 9.02%.

For `C(Cc1nn[nH]n1)Cc1nn[nH]n1`, the cytoprotection (ATP increase) under setting [1] was inactive: -3.98%. With `O=[As](O)(c1ccccc1)c1ccc(O)cc1`, under setting [1], the cytoprotection (ATP increase) is inactive: 6.08%. Take `O=[N+]([O-])c1ncn(CCn2cnc([N+](=O)[O-])n2)n1`: the cytoprotection (ATP increase) under setting [1] is inactive: 7.6%.

Turning to `CN(C(=O)Cc1ccccc1)[C@H]1CC[C@@]2(CCCO2)C[C@@H]1N1CCCC1`, the cytoprotection (ATP increase) under setting [1] is inactive: 8.79% [at 56.4 µM]. As for `[N-]=[N+]=Nc1ccc([As](=O)(O)O)cc1`, under setting [1], the cytoprotection (ATP increase) was inactive: 3.04%. Regarding `Cc1cc([N+](=O)[O-])cc([N+](=O)[O-])c1O`, the cytoprotection (ATP increase) under setting [1] is inactive: -227% [at 56.4 µM]. `C[C@H]1OP(=O)(Oc2ccccc2)[C@H](O)[C@H](O)[C@H]1N=[N+]=[N-]` (stereo partly specified): the cytoprotection (ATP increase) under setting [1] was inactive: 4.41%.

For the molecule `O=P(Nc1nc2ccccc2s1)(c1ccccc1)c1ccccc1`, the cytoprotection (ATP increase) under setting [1] was inactive: -3.9%.

As to `O=P(Nc1ccccn1)(c1ccc(Br)cc1)c1ccc(Br)cc1`, the cytoprotection (ATP increase) under setting [1] is inactive: -10.7% [at 56.4 µM].
